The test system of one experiment is M-NFS-60 cells. Description: cells. Conditions: 67 h, read-out: M-NFS-60 cell proliferation.
Experiment [1] concerns the target unphosphorylated PDGFRβ kinase (uPDGFRβ, Seq. ID No. 3) (Homo sapiens, UniProt P09619). The experiment in a line: biochemical.
The target of experiment [2] is unphosphorylated c-KIT kinase (uKIT, Seq. ID no. 2) (Homo sapiens, UniProt P10721). Description: biochemical.
Experiment [3] has as its target T1, unphosphorylated c-FMS kinase (uFMS, Seq. ID no. 1) (Homo sapiens, UniProt P07333).
T1 sequence (P07333 538-972): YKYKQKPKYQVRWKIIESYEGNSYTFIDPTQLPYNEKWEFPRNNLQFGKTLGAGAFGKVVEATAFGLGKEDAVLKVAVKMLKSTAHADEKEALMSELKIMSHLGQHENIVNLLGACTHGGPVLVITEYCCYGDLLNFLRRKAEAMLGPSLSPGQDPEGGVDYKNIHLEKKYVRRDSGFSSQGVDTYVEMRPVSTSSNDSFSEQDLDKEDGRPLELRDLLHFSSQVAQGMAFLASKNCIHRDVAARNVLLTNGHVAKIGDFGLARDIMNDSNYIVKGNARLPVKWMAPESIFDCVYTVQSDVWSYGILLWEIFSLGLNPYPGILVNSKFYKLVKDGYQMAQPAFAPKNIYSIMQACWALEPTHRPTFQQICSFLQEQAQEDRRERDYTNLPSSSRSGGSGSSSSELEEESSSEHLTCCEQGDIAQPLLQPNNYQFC
The experiment in a line: biochemical. Conditions: IC50 (nM) uFMS, Table 3.

Chains of the proteins cited; added tags and fusions are not shown. Lines headed by an entry give the natural chain unless they say otherwise; changes in a name come on top. A line that says so, or that is headed by a name, gives the form on record, which may keep a tag or linker.
UniProt P09619: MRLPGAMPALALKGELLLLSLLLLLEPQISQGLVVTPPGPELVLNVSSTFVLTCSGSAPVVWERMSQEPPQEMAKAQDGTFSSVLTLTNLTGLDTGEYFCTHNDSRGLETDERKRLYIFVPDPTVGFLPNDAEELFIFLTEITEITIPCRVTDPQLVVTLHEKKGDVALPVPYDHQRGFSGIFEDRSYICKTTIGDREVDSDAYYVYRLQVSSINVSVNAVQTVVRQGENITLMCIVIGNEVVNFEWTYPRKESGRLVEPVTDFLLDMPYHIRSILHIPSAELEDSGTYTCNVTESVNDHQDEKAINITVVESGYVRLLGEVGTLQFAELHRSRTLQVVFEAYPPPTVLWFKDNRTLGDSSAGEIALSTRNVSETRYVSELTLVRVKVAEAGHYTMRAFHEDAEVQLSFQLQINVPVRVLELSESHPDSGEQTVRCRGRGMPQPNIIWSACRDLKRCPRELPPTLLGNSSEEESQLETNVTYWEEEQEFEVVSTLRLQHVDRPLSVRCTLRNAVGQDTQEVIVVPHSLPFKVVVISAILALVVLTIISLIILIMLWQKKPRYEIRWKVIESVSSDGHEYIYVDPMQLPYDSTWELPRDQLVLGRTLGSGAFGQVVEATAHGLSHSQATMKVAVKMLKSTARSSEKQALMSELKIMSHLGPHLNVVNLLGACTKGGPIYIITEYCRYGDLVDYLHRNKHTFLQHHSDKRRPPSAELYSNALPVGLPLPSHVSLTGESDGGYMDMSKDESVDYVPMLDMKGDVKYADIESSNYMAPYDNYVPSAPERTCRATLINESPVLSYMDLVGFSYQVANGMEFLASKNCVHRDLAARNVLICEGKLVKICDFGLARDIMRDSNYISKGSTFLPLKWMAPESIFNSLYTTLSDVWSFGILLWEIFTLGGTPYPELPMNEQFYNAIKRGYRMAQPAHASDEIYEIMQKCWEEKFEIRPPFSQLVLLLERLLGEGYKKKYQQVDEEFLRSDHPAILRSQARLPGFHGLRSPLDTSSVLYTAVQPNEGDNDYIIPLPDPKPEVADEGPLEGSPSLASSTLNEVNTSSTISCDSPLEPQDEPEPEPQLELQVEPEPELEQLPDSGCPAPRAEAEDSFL
UniProt P10721, with tags, fused parts or gaps: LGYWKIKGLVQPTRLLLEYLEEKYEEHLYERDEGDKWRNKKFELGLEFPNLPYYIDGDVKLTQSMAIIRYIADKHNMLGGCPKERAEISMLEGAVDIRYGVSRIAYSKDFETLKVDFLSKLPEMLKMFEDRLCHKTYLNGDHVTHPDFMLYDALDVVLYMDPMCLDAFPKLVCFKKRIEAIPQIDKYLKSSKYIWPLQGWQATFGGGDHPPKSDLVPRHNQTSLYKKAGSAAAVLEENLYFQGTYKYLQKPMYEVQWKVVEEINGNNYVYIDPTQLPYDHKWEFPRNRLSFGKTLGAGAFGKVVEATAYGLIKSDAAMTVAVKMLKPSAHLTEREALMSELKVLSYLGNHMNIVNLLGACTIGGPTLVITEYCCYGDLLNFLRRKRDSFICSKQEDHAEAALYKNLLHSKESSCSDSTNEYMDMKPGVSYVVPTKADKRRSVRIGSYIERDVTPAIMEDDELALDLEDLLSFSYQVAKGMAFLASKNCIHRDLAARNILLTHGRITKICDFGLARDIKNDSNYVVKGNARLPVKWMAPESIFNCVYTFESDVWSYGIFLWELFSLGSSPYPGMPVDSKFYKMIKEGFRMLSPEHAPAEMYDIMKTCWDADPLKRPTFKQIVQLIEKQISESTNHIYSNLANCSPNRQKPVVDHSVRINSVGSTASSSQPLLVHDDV

Setting [4] is: uPDGFRb, enzymatic assay, ATP 500 μM.
[5] abbreviates: uKIT, enzymatic assay, ATP 2000 μM.

For `Cc1cc(-c2cc(Oc3ccc(NC(=O)NC(=O)C4CC(C)(C)C4)nc3C)ccn2)on1` [Example 14, 3,3-dimethyl-N-((6-methyl-5-((2-(3-methylisoxazol-5-yl)pyridin-4-yl)oxy)pyridin-2-yl)carbamoyl)cyclobutanecarboxamide], the IC50 in the experiment with M-NFS-60 cells is less than 10 nM.
With `COCC(=O)NC(=O)Nc1ccc(Oc2ccnc(-c3cnn(C)c3)c2)cn1` [Example 21, 2-methoxy-N-((5-((2-(1-methyl-1H-pyrazol-4-yl)pyridin-4-yl)oxy)pyridin-2-yl)carbamoyl)acetamide], the IC50 was greater than 1000 nM in experiment [1] (setting [4]) and 100 to 1000 nM in the experiment with M-NFS-60 cells.
For `CC(C)C(=O)NC(=O)Nc1ccc(Oc2ccnc(-c3cnn(C)c3)c2)cn1` [Example 24, N-((5-((2-(1-methyl-1H-pyrazol-4-yl)pyridin-4-yl)oxy)pyridin-2-yl)carbamoyl)isobutyramide], the IC50 with M-NFS-60 cells is 10 to 100 nM.
In the case of `Cc1ccc(-c2cc(Oc3ccc(NC(=O)NC(=O)C(C)(C)C)nc3C)ccn2)cn1` [Example 39, N-((6-methyl-5-((6′-methyl-[2,3′-bipyridin]-4-yl)oxy)pyridin-2-yl)carbamoyl)pivalamide], the IC50 was greater than 1000 nM in experiment [1] (setting [4]), greater than 1000 nM in experiment [2] (setting [5]) and 10 to 100 nM in the experiment on M-NFS-60 cells.
On to `Cc1nc(NC(=O)NC(=O)CC(C)(C)C(F)(F)F)ccc1Oc1ccnc(-c2cnn(C)c2)c1` [Example 47, 4,4,4-trifluoro-3,3-dimethyl-N-((6-methyl-5-((2-(1-methyl-1H-pyrazol-4-yl)pyridin-4-yl)oxy)pyridin-2-yl)carbamoyl)butanamide], for which the IC50 is 10 to 100 nM in experiment [1] (setting [4]), less than 10 nM in experiment [2] (setting [5]) and 10 to 100 nM with M-NFS-60 cells.
Regarding `Cn1cc(-c2cc(Oc3ccc(NC(=O)NC(=O)C4(C)CC4)nc3)ccn2)cn1` [Example 52, 1-methyl-N-((5-((2-(1-methyl-1H-pyrazol-4-yl)pyridin-4-yl)oxy)pyridin-2-yl)carbamoyl)cyclopropanecarboxamide], in the experiment with M-NFS-60 cells, the IC50 is less than 10 nM.
In the case of `COC(C)(C)C(=O)NC(=O)Nc1ccc(Oc2ccnc(-c3cnn(C)c3)c2)cn1` [Example 55, 2-methoxy-2-methyl-N-((5-((2-(1-methyl-1H-pyrazol-4-yl)pyridin-4-yl)oxy)pyridin-2-yl)carbamoyl)propanamide], the IC50 was 1100 nM in experiment [1] (IC50 (nM) uPDGFRβ, Table 3); greater than 1000 nM in experiment [1] (setting [4]); 5 nM in experiment [3]; 1300 nM in experiment [2] (IC50 (nM) uKIT, Table 3); greater than 1000 nM in experiment [2] (setting [5]); less than 10 nM in the experiment on M-NFS-60 cells.
With `Cc1cc(-c2cc(Oc3ccc(NC(=O)NC(=O)C(C)(C)C)nc3C)ccn2)ccn1` [Example 56, N-((6-methyl-5-((2′-methyl-[2,4′-bipyridin]-4-yl)oxy)pyridin-2-yl)carbamoyl)pivalamide], the IC50 was 4 nM in experiment [3] and less than 10 nM in the experiment with M-NFS-60 cells.
Turning to `Cc1nc(NC(=O)NC(=O)CCCOC(F)(F)F)ccc1Oc1ccnc(-c2cnn(C)c2)c1` [Example 59, N-((6-methyl-5-((2-(1-methyl-1H-pyrazol-4-yl)pyridin-4-yl)oxy)pyridin-2-yl)carbamoyl)-4-(trifluoromethoxy)butanamide], the IC50 in experiment [2] (setting [5]) fell in the range of 100 to 1000 nM; in the experiment on M-NFS-60 cells it was 10 to 100 nM.
As to `Cc1cc(-c2cc(Oc3ccc(NC(=O)NC(=O)C(C)(C)C)nc3C)ccn2)on1` [Example 76, N-((6-methyl-5-((2-(3-methylisoxazol-5-yl)pyridin-4-yl)oxy)pyridin-2-yl)carbamoyl)pivalamide], the IC50 in the experiment on M-NFS-60 cells lay in the range of 10 to 100 nM.
Turning to `Cc1cc(-c2cc(Oc3ccc(NC(=O)NC(=O)C(C)C)nc3C)ccn2)ccn1` [Example 79, N-((6-methyl-5-((2′-methyl-[2,4′-bipyridin]-4-yl)oxy)pyridin-2-yl)carbamoyl)isobutyramide], the IC50 was greater than 1000 nM in experiment [1] (setting [4]), greater than 1000 nM in experiment [2] (setting [5]) and 10 to 100 nM in the experiment on M-NFS-60 cells.
Consider `CC(C)C(=O)NC(=O)Nc1ccc(Oc2ccnc(-c3cnn(C)c3)c2)c(C(F)(F)F)n1` [Example 82, N-((5-((2-(1-methyl-1H-pyrazol-4-yl)pyridin-4-yl)oxy)-6-(trifluoromethyl)pyridin-2-yl)carbamoyl)isobutyramide], for which the IC50 (in experiment [1] (setting [4]); in experiment [2] (setting [5]); in the experiment on M-NFS-60 cells) was greater than 1000 nM in each case.
On to `CCC(=O)NC(=O)Nc1ccc(Oc2ccnc(-c3cnc(C)s3)c2)cn1` [Example 98, N-((5-((2-(2-methylthiazol-5-yl)pyridin-4-yl)oxy)pyridin-2-yl)carbamoyl)propionamide], for which the IC50 (in experiment [1] (setting [4]); in experiment [2] (setting [5]); with M-NFS-60 cells) was greater than 1000 nM each time.
With `Cn1cc(-c2cc(Oc3ccc(NC(=O)NC(=O)C4CC5CCC4O5)nc3)ccn2)cn1` (centres unmarked) [Example 111, N-((5-((2-(1-methyl-1H-pyrazol-4-yl)pyridin-4-yl)oxy)pyridin-2-yl)carbamoyl)-7-oxabicyclo[2.2.1]heptane-2-carboxamide], in the experiment on M-NFS-60 cells, the IC50 was less than 10 nM.
In the case of `Cc1ccc(-c2cc(Oc3ccc(NC(=O)NC(=O)C4(C)CC4)nc3)ccn2)cn1` [Example 114, 1-methyl-N-((5-((6′-methyl-[2,3′-bipyridin]-4-yl)oxy)pyridin-2-yl)carbamoyl)cyclopropanecarboxamide], the IC50 (in experiment [2] (setting [5]); in the experiment on M-NFS-60 cells) was 10 to 100 nM in each case.
As to `Cc1ncc(-c2cc(Oc3ccc(NC(=O)NC(=O)C4(C)CC4)nc3)ccn2)s1` [Example 121, 1-methyl-N-((5-((2-(2-methylthiazol-5-yl)pyridin-4-yl)oxy)pyridin-2-yl)carbamoyl)cyclopropanecarboxamide], the IC50 in experiment [2] (setting [5]) is 100 to 1000 nM; in the experiment with M-NFS-60 cells, 10 to 100 nM.
With `COC1(C(=O)NC(=O)Nc2ccc(Oc3ccnc(-c4ccc(C5CCN(C)CC5)cc4)c3)c(C)n2)CC1` [Example 144, 1-methoxy-N-((6-methyl-5-((2-(4-(1-methylpiperidin-4-yl)phenyl)pyridin-4-yl)oxy)pyridin-2-yl)carbamoyl)cyclopropanecarboxamide], the IC50 in the experiment with M-NFS-60 cells was less than 10 nM.
With `Cc1cn(-c2cc(Oc3ccc(NC(=O)NC(=O)C4(C)CCC4)nc3C)ccn2)cn1` [Example 147, 1-methyl-N-((6-methyl-5-((2-(4-methyl-1H-imidazol-1-yl)pyridin-4-yl)oxy)pyridin-2-yl)carbamoyl)cyclobutanecarboxamide], the IC50 is greater than 1000 nM in experiment [1] (setting [4]), greater than 1000 nM in experiment [2] (setting [5]) and 10 to 100 nM with M-NFS-60 cells.
As to `COC1(C(=O)NC(=O)Nc2ccc(Oc3ccnc(-c4cnn(C)c4)c3)c(C)n2)CCCC1` [Example 150, 1-methoxy-N-((6-methyl-5-((2-(1-methyl-1H-pyrazol-4-yl)pyridin-4-yl)oxy)pyridin-2-yl)carbamoyl)cyclopentanecarboxamide], the IC50 in the experiment on M-NFS-60 cells is less than 10 nM.
In the case of `COC1(C(=O)NC(=O)Nc2ccc(Oc3ccnc(-c4cnn(C)c4)c3)cn2)CCCC1` [Example 153, 1-methoxy-N-((5-((2-(1-methyl-1H-pyrazol-4-yl)pyridin-4-yl)oxy)pyridin-2-yl)carbamoyl)cyclopentanecarboxamide], the IC50 in experiment [1] (setting [4]) is 10 to 100 nM; in experiment [2] (setting [5]), 10 to 100 nM; in the experiment on M-NFS-60 cells, less than 10 nM.
